Source: patent US12382888B2, “Compositions and methods for modulating immunity in plants” (Boyce Thompson Institute for Plant Research, Inc., priority 2013, dated 2025)
Entries after “also recorded” stand apart in the source; their conditions may differ.

How the values were obtained:
[1] = system: PR-1, FRK1, PHI1, WRKY53; test: Defense gene expression in Arabidopsis roots (qRT-PCR); conditions: 300 nM; 6 hours
[2] = system: PR-1; test: PR-1 protein/transcript induction in tobacco leaves (immunoblot, RT-PCR)

In the case of CC1O[C@@H](O[C@@H](C)CCCCCCCCC(=O)O)C(O)C[C@H]1O (stereo in doubt) [ascr #18, (10R)-(3′R,5′R-dihydroxy-6′S-methyl-(2H)-tetrahydropyran-2-yloxy)-undecanoic Acid], the “root expression of PHI1, FRK1, and WRKY53” value [1] is reported as “no effect or reduced expression”, the “SA-induced PR-1 accumulation” value ([2]; ascr #18 10 μM with 50 μM SA, leaf infiltration) is reported as “appeared to inhibit the ability of 50 μM SA to induce low-level PR-1 accumulation” and the “PR-1 accumulation in presence of SA” value ([2]; ascr #18 0.01 or 0.3 μM with SA 500 μM or 50 μM, leaf infiltration, vs SA only) is reported as “enhanced SA induction of PR-1 protein production”. The “SA-mediated induction of PR-1 expression/protein accumulation in leaves” value ([2]; roots treated with 0.01 μM by immersion, leaves SA 250 μM, 48 h) was “enhance SA-mediated induction of PR-1 expression/protein accumulation; also recorded: enhanced induction by SA of PR-1 transcript”.
